Test: Drive to obtain fentanyl in rats
Conditions: doses lower than exendin-4

## CC[C@H](C)[C@H](NC(=O)[C@H](Cc1ccccc1)NC(=O)[C@H](CCC(=O)O)NC(=O)[C@H](CCCNC(=N)N)NC(=O)[C@@H](NC(=O)[C@H](C)NC(=O)[C@H](CCC(=O)O)NC(=O)[C@H](CCC(=O)O)NC(=O)[C@H](CCC(=O)O)NC(=O)[C@H](CC(C)C)NC(=O)[C@H](Cc1ccc(O)cc1)NC(=O)[C@H](CCCCN=[N+]=[N-])NC(=O)[C@H](CO)NC(=O)[C@H](CC(C)C)NC(=O)[C@H](CC(=O)O)NC(=O)[C@H](CO)NC(=O)[C@@H](NC(=O)[C@H](Cc1ccccc1)NC(=O)[C@@H](NC(=O)CNC(=O)[C@H](CCC(N)=O)NC(=O)[C@@H](CO)NC(=O)[C@@H](N)Cc1c[nH]cn1)[C@@H](C)O)[C@@H](C)O)C(C)C)C(=O)N[C@@H](C)C(=O)N[C@@H](Cc1c[nH]c2ccccc12)C(=O)N[C@@H](CC(C)C)C(=O)N[C@@H](CCCCN)C(=O)N[C@@H](CC(N)=O)C(=O)NCC(=O)NCC(=O)N1CCC[C@H]1C(=O)N[C@@H](CO)C(=O)N[C@@H](CCCNC(=N)N)C(=O)N[C@@H](Cc1c[nH]cn1)C(=O)N[C@@H](Cc1ccc(O)cc1)C(=O)N[C@@H](CC(C)C)C(=O)N[C@@H](CC(N)=O)C(=O)N[C@@H](CC(C)C)C(=O)N[C@H](C(=O)N[C@H](C(=O)N[C@@H](CCCNC(=N)N)C(=O)N[C@@H](CCC(N)=O)C(=O)N[C@@H](CCCNC(=N)N)C(=O)N[C@@H](Cc1ccc(O)cc1)C(N)=O)[C@@H](C)O)C(C)C [GEP44]
  drive to obtain fentanyl: reduction in the drive to obtain fentanyl

— patent US12384825B2, “Monomeric peptide multi-agonist targeting the GLP1 receptor and NPY receptors” (Syracuse University, priority 2019, dated 2025)
